Reference: patent US6503916B2, “Treatment of ischemic brain injury” (Board of Regents, The University of Texas System, priority 1999, dated 2003)
Where two headings read alike, the source gives them in different places.

Test system: rat model of transient focal cerebral ischemia

| Compound | infarct volume (rat, in vivo, po) | infarct volume (oral treatment 3 hours and 1 hour before ischemia, 3 hours MCA/CCA occlusion, 24 hours reperfusion) |
| --- | --- | --- |
| Cn1c(=O)c2c(ncn2C)n(C)c1=O [caffeine] | 122.4+/−30.2 mm^3 | – |
| CCO [ethanol] | – | 177.2+/−27.8 mm^3 |
